The assay has as its system GABA-A receptor. In words: Cortical tissue homogenate study: radioactive chloride uptake into vesicles through the GABA-A receptor. In kind it is biochemical, rat. The following applies: 10 μM GABA alone = 100%; 3alpha-hydroxy-5alpha-pregnan-20-one 0-3000 nM + 10 μM GABA + 30 μM interacting steroid; reference steroid tested without blocker. As for the experimental part: In these studies cortical tissue from mature male rats was homogenized in buffer. As a result of this procedure a suspension of small vesicles was formed, said vesicles having GABA-A receptors on their surface. When radioactive chloride is added to this suspension, a certain amount will enter the vesicles. This amount is related to how much open the GABA-A receptor is. Drugs that open the receptor will increase the amount of chloride in the vesicles in relation to the dosage of the drug. Similarly, drugs that close the GABA-A receptor will decrease the amount of chloride moving into the vesicles. The labeled chloride outside of the vesicles was washed away and separated from the chloride inside. The amount of radioactively labeled chloride inside the vesicles was thereafter measured in a fluid scintillator and a curve drawn.
At each experiment, a control of increasing dosages of GABA was used to ensure that the tissue sample is working properly. A second control was used to enhance the effect of 10 μM of GABA by adding increasing dosages 3alpha-hydroxy-5alpha-pregnan-20-one.
The effect is shown as a percentage change from the uptake with only 10 μM GABA and no 3 alpha-hydroxy-5alpha-pregnan-20-one in this case given the measure 100%. […]

As for `CC(=O)[C@H]1CC[C@H]2[C@@H]3CC[C@H]4C[C@@H](O)CC[C@]4(C)[C@H]3C(=O)C[C@]12C` [UC1017, 3beta hydroxy-5alpha-pregnan-11,20-dione], the “Mean % (SEM) chloride uptake relative to only 10 uM GABA” value is 116.9(19) %.

These data come from patent US8119619B2, “Pregnane steroids and their use in the treatment of CNS disorders” (Umecrine AB, priority 2001, dated 2012).
